Test results: PubChem BioAssay AID485364 (National Center for Advancing Translational Sciences (NCATS), 2010)
Values joined by “and” are separate entries in the source; they are usually repeats but may differ in a detail not shown here. Equal entries are not always repeated. Only a part is listed here, and it is no random draw. Some of these compounds have results that are not shown, active ones among them. Active and inactive are the calls of the source. Calls follow the shape of the dose curve; as a rule, active = well fitted inhibition curve with a large enough effect; inconclusive = small, poorly fitted or top-dose-only effect; inactive = no such curve, though single readings can be large or run the other way.

target: Schistosoma mansoni thioredoxin glutathione reductase (TGR) (UniProt Q962Y6); test: qHTS Assay for the Inhibitors of Schistosoma Mansoni Peroxiredoxins; conditions: purified TGR, DTNB reduction, TNB absorbance 405 nm; at 114 µM (top of the series); also: nearly all actives have a fitted effect of over 60% in size
Description: Schistosomiasis is a major neglected tropical disease that currently affects over 200 million. It is caused by different species of flatworms, such as Schistosoma mansoni. Over the last century, drugs to treat the disease have evolved from potassium antimonyl tartrate, artemisinin, oxamniquine, to praziquantel, with praziquantel remaining the universally-used single drug of choice over the past three decades. However, transmission rates have changed little with praziquantel, and there is evidence for the development of drug resistant parasites. Because there is currently no suitable alternative therapy available, there is an urgent need to identify new targets and drugs for schistosomiasis treatment. Thioredoxin glutathione reductase (TGR), one uniquely positioned S. mansoni enzyme, has been identified as a major component of the worms' distinct and compressed antioxidant "firewall". TGR is a multifunctional enzyme that catalyzes the interconversion between reduced and oxidized forms of both glutathione (GSH) and thioredoxins, thus making it an attractive new antiparasitic target. Recently, a quantitative high-throughput screen of the NIH Molecular Libraries Small Molecule Repository (MLSMR, ~71K at the time of the screen in 2007) was performed using an assay that targeted both TGR and peroxiredoxin2 (Prx2, an H2O2-reducing enzymatic component of the S. mansoni redox "firewall") by following the decrease of NADPH fluorescence. […] Additional mechanistic link between exogenous NO donation and parasitic injury for the oxadiazole-2-oxide class of compounds was also expanded and better defined. Although the screen addressed both TGR and Prx2, the assay required post-screen target deconvolution for further characterization of the actives. In addition, the fluorescence assay was also subject to fluorescence interference from compound library members. We have developed a 1536-well-based kinetic HTS assay to address TGR alone. The assay followed the reduction of 5, 5'-dithiobis (2-nitrobenzoic acid) (DTNB) (Ellman's reagent) by NADPH and measured the increase in absorbance at 412 nm of the reaction product, TNB. […] This assay format can be used to screen the current MLSMR collection (with >300K compounds available) to find novel TGR inhibitors. Furoxan is a good choice to serve as a positive control in the primary HTS assay.
Three microliters of reagents (100 uM NADPH and 20 nM TGR or 100 uM NADPH as no-enzyme control) were dispensed into 1,536-well black clear-bottomed plates. Compounds (23 nL) were transferred via Kalypsys pin tool equipped with 1536-pin array (10 nL slotted pins, V&P Scientific, San Diego, CA). The plates were then be incubated for 15 min at room temperature, and 1 uL aliquot of 500 uM NADPH were added, immediately followed by a 1 uL aliquot of 15 mM DTNB to start the reaction. The plate was transferred to a ViewLux high-throughput CCD imager (Perkin-Elmer, Wellesley, MA) where kinetic measurements of the TNB absorbance were acquired using a 405 excitation filter. Throughout the screen, reagent bottles and all liquid lines were made light-tight to minimize reagent degradation. All screening operations were performed on a fully integrated robotic system (Kalypsys, San Diego, CA) containing one RX-130 and two RX-90 anthropomorphic robotic arms (Staubli, Duncan, SC). Library plates were screened starting from the lowest and proceeding to the highest concentration, and a "double-dipping" step of the highest concentration was required to access higher concentrations of compounds. Vehicle-only plates, with DMSO being pin-transferred to the entire column 5-48 compound area, were inserted uniformly at the beginning and the end of each library in order to monitor for and record any shifts in the background, which can be affected by reagent dispensers or loss in enzyme activity overtime. […]
% is scaled to controls: 0 for no effect and ±100 for the full control effect.

SMILES | activity change, negative = inhibition
CN(C)c1ccc(C(=O)NCC2(N(C)C)CCCCC2)cc1 | inactive: 16.3%
CN(C)C1CCCC1OC(=O)C(O)(c1ccccc1)c1ccccc1 (stereo not drawn) | inactive: -1.85%
Cc1ccccc1C(=O)NCC1(N2CCCCC2)CCCCC1 | inactive: -23.7%
CN(C)C1(CNC(=O)c2ccccc2[N+](=O)[O-])CCCCC1 | inactive: 4.28%
CCCCOc1ccccc1C(=O)NCC1(N(C)C)CCCCC1 | inactive: -0.628%
O=C(NCC1(N2CCCCC2)CCCCC1)c1cc(F)c(F)cc1Cl | inactive: 0.471%
C=CCN1CCN(CCOC(=O)C(O)(c2ccccc2)c2ccccc2)CC1 | inactive: 1.04%
O=C(NCC1(N2CCCCC2)CCCCC1)c1cccc(Br)c1 | inactive: -3.58%
CCN1CCCC(OC(=O)C2(O)c3ccccc3C=Cc3ccccc32)C1 (stereo not drawn) | inactive: -0.392%
Cc1cc(C(=O)NCC2(N3CCCCC3)CCCCC2)ccc1[N+](=O)[O-] | inactive: 22.1%
CCOc1cccc(C(=O)NCC2(N(C)C)CCCCC2)c1 | inactive: 42.5%
COc1ccc(C(=O)NCC2(N(C)C)CCCCC2)cc1 | inactive: -3.77%
O=C(NCC1(N2CCCCC2)CCCCC1)c1cc([N+](=O)[O-])ccc1Cl | inactive: -19.8%
CN1[C@@H]2CC[C@H]1CC(OC(=O)C(O)(c1ccccc1)c1ccccc1)C2 (stereo partly drawn) | inactive: 14.4%
CC(C)N1C(=O)CC2(CCN(CCOC(=O)C(O)(c3ccccc3)c3ccccc3)CC2)C1=O | inactive: -0.317%
COc1cc(SC)ccc1C(=O)NCC1(N(C)C)CCCCC1 | inactive: 6.54%
CN(C)C1(CNC(=O)c2cccc(Cl)c2)CCCCC1 | inactive: 1.37%

SMILES | activity change, negative = inhibition
CCN(CC)CC(C)C(C)OC(=O)C(O)(c1ccccc1)c1ccccc1 (stereo not drawn) | inactive: -10.3%
CN(C)C1(CNC(=O)c2ccccc2F)CCCCC1 | inactive: 4.55%
Cc1ccc(C(=O)NCC2(N3CCCCC3)CCCCC2)cc1 | inactive: 4.16%
O=C(OC1CN2CCC1CC2)C(CO)(c1ccccc1)c1ccccc1 (stereo not drawn) | inactive: -11.9%
COc1cccc(C(=O)NCC2(N3CCOCC3)CCCCC2)c1 | inactive: 4.46%
CC(C)COc1ccc(C(=O)NCC2(N(C)C)CCCCC2)cc1 | inactive: 5.05%
COc1cc(C(=O)NCC2(N(C)C)CCCCC2)cc(OC)c1OC | inactive: 4.08%
Cc1cccc(C(=O)NCC2(N(C)C)CCCCC2)c1 | inactive: 2.52%
CN(C)c1cccc(C(=O)NCC2(N(C)C)CCCCC2)c1 | inactive: 2.7%
CC(C)Oc1ccc(C(=O)NCC2(N(C)C)CCCCC2)cc1 | inactive: 1.26% and inactive: -7.91%
CN(C)C1(CNC(=O)c2ccc(Br)cc2)CCCCC1 | inactive: 2.75%
COc1cc(C(=O)NCC2(N(C)C)CCCCC2)c([N+](=O)[O-])cc1OC | inactive: 0%
COc1ccc(C(=O)NCC2(N(C)C)CCCCC2)cc1Cl | inactive: -0.946%
COc1ccc(Cl)cc1C(=O)NCC1(N(C)C)CCCCC1 | inactive: 2.61%
COc1cccc(C(=O)NCC2(N3CCCCC3)CCCCC2)c1 | inactive: -2.35%
O=C(NCC1(N2CCCCC2)CCCCC1)c1cccc(Cl)c1 | inactive: -2.74%
